Compounds with a hit are over-represented: about 2.2% of the library has one in this group of screens.
A549 tox = A549 cytotoxicity, counter-screen for Nrf2 inhibitors; A549 ARE-Fluc cells, CellTiter-Fluor viability, 18-24 h; Potency, µM (highest dose often 46 µM), inactives show at the highest dose activity change, negative = cytotoxicity, hits mostly inhibitors; 390,000 tested, 0.16% active; further: potency means the concentration at half of the fitted maximal effect; on the % scale 0 is the no-effect control and ±100 the full control effect
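A549 ARE_Fluc cells in 5% FBS OPTI-MEM were exposed to compounds in concentration-response for 18-24 h at 37 deg C. Viability was read by CellTiter-Fluor fluorescence (Ex 405/Em 525) after 30 min, before the luciferase read.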
GALK inhibitor = blocks human galactokinase activity; P51570; Purified GALK, Kinase-Glo residual ATP luminescence; Potency, µM (top dose mostly 57.5 µM), without a hit: at the highest dose activity change, negative = inhibition, most hits filed as inhibitors; 270,000 tested, 0.007% active; AID 1868; further: potency means the concentration at half of the fitted maximal effect; on the % scale 0 is the no-effect control and ±100 the full control effect
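Kinase-Glo Plus luminescence measured ATP left after a 1 h room-temperature reaction. The reaction used 5 nM GALK, 100 uM galactose and 35 uM ATP at pH 8.0 (20 mM HEPES, 5 mM MgCl2, 60 mM NaCl, 1 mM DTT, 0.01% BSA).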
Nrf2 activator = activates Nrf2 signaling | Potency, µM (top dose mostly 46.1 µM), inactives show at the top dose activation, usual class: activators | 410,000 tested, 0.31% active | AREc32 ARE-luciferase reporter (MCF7-derived line), luminescence, 24 h; further: potency means the concentration at half of the fitted maximal effect; % of control where 0% means no effect; nearly all actives have a fitted effect of over 65% in size
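Quantitative high-throughput format: AREc32 reporter cells, 1000 per well, received compound by pin transfer and were incubated 24 hr at 37 deg C, 5% CO2, before Steady-Glo luminescence detection.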
Nrf2 inh = inhibitors of Nrf2 signaling. A549 ARE-Fluc reporter, luciferase luminescence, 18-24 h. Potency, µM (doses to about 46 µM), without a hit: at the top dose activity change, negative = inhibition, usual class: inhibitors. 360,000 tested, 2.1% active. AID 504444; further: potency means the concentration at half of the fitted maximal effect; on the % scale 0 is the no-effect control and ±100 the full control effect; nearly all actives have a fitted effect of over 60% in size
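A549 ARE_Fluc cells (5000/well, 5% FBS OPTI-MEM) pre-incubated 2 h, then treated with compounds 18-24 h at 37C/5% CO2 in concentration-response. CellTiter-Fluor viability read first; BugLite luciferase luminescence after 15 min at room temperature gives Nrf2 activity.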
PI4K2A block = PI4K2A (human) kinase inhibition; Q9BTU6; purified PI4K2A, ADP-Glo luminescence, 1 h; active compounds read low; activity change, negative = inhibition, % at 76.9 µM; 420,000 tested, 0.13% active; AID 1346378; in the data active means activity change below about -50%; inconclusive means mostly about -30% to -49%;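 further: -100% = wells without enzyme as full effect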
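Compounds are screened against recombinant PI4K2A using PI as substrate and ATP, the latter dispensed at 300 microM. Reactions run one hour at ambient temperature before ADP-Glo detection; full inhibition defined by wells lacking enzyme.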
miR-21 reporter = raises the signal of a miR-21 reporter | HeLa miR-21 FLuc reporter, luciferase, 48 h | Potency, µM (highest dose often 38.3 µM), for inactives: at the highest dose reporter change, positive = more light | 340,000 tested, under 10 active | AID 2288; active = well fitted rising curve with a large enough effect; inconclusive = small, poorly fitted or top-dose-only effect; inactive = no such curve, though single readings can be large or run the other way;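 also: % of control where 0% means no effect; miR-21 action dims this reporter so a rising signal means less miR-21 action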
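Using DMEM plus 10% FBS, HeLa miR-21-FLuc cells are incubated with test compounds (final up to about 40uM) for 48 hours; firefly luciferase signal is then imaged following reagent-mediated lysis.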
The depositor's hits bear a star; ? = inconclusive; nt = not tested or not shown; [ ] = remark or other dose. Unless noted, the call rests on the fitted dose curve; in most records, active means well fitted curve in the direction sought with a large enough effect; inconclusive means small, poorly fitted or top-dose-only effect, or another doubt; inactive means no such curve, though single readings can be large; an effect the other way counts as inactive or inconclusive.

Codes – A = A549 tox; B = GALK inhibitor; C = Nrf2 activator; D = Nrf2 inh; E = PI4K2A block; F = miR-21 reporter
(1) COc1ccccc1NC(=O)CCn1nc(-c2ccccc2)c2ccccc2c1=O
  A = ?; B = nt; C = 3.5%; D = 23.1µM*; E = 2.7; F = 17.8%
(2) CCOc1ccc(-c2cc(C(=O)OC)c3n(c2=O)CCC3)cc1
  A = nt; B = nt; C = nt; D = nt; E = 0.1; F = nt
(3) Cc1csc2ncnc(N3CCN(C(=S)Nc4ccc(C(F)(F)F)cc4)CC3)c12
  A = -5.7%; B = nt; C = 6.8%; D = 25.9µM*; E = -1.2; F = 7.8%
(4) COc1ccccc1C(=O)NC1CCCCN(Cc2cccc(F)c2)C1=O (stereo unspecified)
  A = nt; B = nt; C = nt; D = nt; E = -2.7; F = nt
(5) COC(=O)C[C@@H]1CC[C@H]2[C@@H](COc3ccc(NC(=O)NC(C)C)cc3C(=O)N2C)O1
  A = nt; B = nt; C = nt; D = nt; E = -2.6; F = nt
(6) C=CCOc1c(Br)cc(CNc2ccc(NC(=O)C(C)C)c(OC)c2)cc1OC
  A = -21.8%; B = -0.4%; C = -0.1%; D = 9.2µM*; E = 2.5; F = 1.5%
(7) COc1cc(CNc2ccc(C(=O)O)cc2)cc(Br)c1OCC(=O)NC(C)(C)C
  A = -1.8%; B = 2.6%; C = -0.3%; D = ?; E = 0.5; F = -26.2%
(8) COC(=O)Cn1cc(/C=C/c2cc[n+](C)cc2)c2ccccc21
  A = ?; B = -1.1%; C = 1.7%; D = -30.4%; E = 0.5; F = 1.3%
(9) COc1ccc2c(c1)c(/C=C/c1cc[n+](C)cc1)cn2C
  A = -1.2%; B = 0.8%; C = 7.8%; D = 11.6µM*; E = -12.0; F = 29.5%
(10) O=C(NN1CCCC1)NS(=O)(=O)c1ccc(Cl)cc1
  A = nt; B = nt; C = nt; D = nt; E = -0.4; F = nt
(11) Cc1ccccc1-c1nc(CS(=O)(=O)CC(=O)NCCCc2ccccc2)c(C)o1
  A = ?; B = nt; C = 0.1%; D = 20.6µM*; E = -5.3; F = 13.8%
(12) CN(C)S(=O)(=O)c1ccc2[nH]cc(/C=C/c3nc4ccccc4c(=O)n3-c3ccccc3)c2c1
  A = 1.2%[1.84 µM]; B = 4.1%; C = -0.2%; D = 10.3µM*; E = -10.1; F = 4.7%
(13) CCn1c(/C=C/c2c[nH]c3ccccc23)nc2ccccc2c1=O
  A = 0.6%; B = -4.3%; C = 8.0%; D = ?; E = -0.4; F = -62.4%
(14) CCOC(=O)[C@]12CCCC=C1N(Cc1ccc(OC)cc1)C(=O)[C@@H]2CC(=O)N1CCCC1
  A = nt; B = nt; C = nt; D = nt; E = -1.7; F = nt
(15) COc1c(C)cc(NS(=O)(=O)c2ccc3c(c2)OCCO3)cc1C
  A = -10.2%; B = nt; C = 5.9%; D = 23.1µM*; E = 4.1; F = 26.5%

The results go on.
Codes – A = A549 tox; B = GALK inhibitor; C = Nrf2 activator; D = Nrf2 inh; E = PI4K2A block; F = miR-21 reporter
(16) COc1ccc(S(=O)(=O)Nc2ccc3c(c2)OCO3)cc1OC
  A = 0.6%; B = 1.0%; C = 0.0%; D = 2.9%; E = -1.9; F = -15.6%
(17) Cc1ccc(S(=O)(=O)Nc2ccc3c(c2)OCCO3)cc1C
  A = 9.0%; B = -0.3%; C = -0.2%; D = -9.9%; E = 5.0; F = -18.3%
(18) Cc1ccc(S(=O)(=O)Nc2ccc3ccccc3c2)cc1
  A = 7.2%; B = nt; C = 6.1%; D = -2.7%; E = -3.1; F = nt
(19) COc1ccc(NS(=O)(=O)c2ccc3c(c2)OCCO3)cc1OC
  A = -11.5%; B = 5.5%; C = 0.3%; D = 20.6µM*; E = 5.0; F = 17.8%
(20) CN1CCOc2cc(S(=O)(=O)Nc3ccc(F)cc3)ccc21
  A = -4.8%; B = 2.8%; C = -0.1%; D = nt; E = -2.9; F = 6.9%
(21) COc1ccc(S(=O)(=O)Nc2ccc3ccccc3c2)cc1C
  A = -14.9%; B = 3.5%; C = 3.7%; D = 20.6µM*; E = 2.8; F = -8.5%
(22) Cc1ccc(NS(=O)(=O)c2ccc3c(c2)N(C)CCO3)cc1
  A = -5.9%; B = 4.5%; C = 2.9%; D = 25.9µM*; E = -0.2; F = 8.3%
(23) Cc1ccc(CNC(=O)O[C@H]2CC[C@@]34CCCN3C(=O)CCC[C@H]4[C@H]2C)cc1
  A = nt; B = nt; C = nt; D = nt; E = 1.2; F = nt
(24) CCN(CC)CCN
  A = nt; B = nt; C = nt; D = nt; E = -0.4; F = nt
(25) CSc1ccc(C(=O)C2CCCN(C(=O)CCc3c(C)nn(C)c3C)C2)cc1 (stereo unspecified)
  A = -16.9%; B = nt; C = -0.1%; D = 9.2µM*; E = -3.6; F = nt
(26) COc1ccc(Cl)cc1S(=O)(=O)N1CCN(S(=O)(=O)c2ccc3c(c2)OCCO3)CC1
  A = -0.3%; B = nt; C = nt; D = ?; E = nt; F = nt
(27) CCCCC(=O)NC(c1ccc([N+](=O)[O-])cc1)c1c(O)ccc2ccccc12 (stereo unspecified)
  A = ?; B = 0.0%; C = 18.7%; D = ?; E = -0.4; F = 18.8%
(28) O=C(NC(c1ccc(Cl)cc1)c1c(O)ccc2ccccc12)c1ccccc1 (stereo unspecified)
  A = ?; B = 0.5%; C = 9.3%; D = 11.6µM*; E = 2.0; F = ?
(29) CCC(=O)NC(c1ccc([N+](=O)[O-])cc1)c1c(O)ccc2ccccc12 (stereo unspecified)
  A = ?; B = 1.1%; C = 0.3%; D = 16.4µM*; E = -4.4; F = 16.6%
(30) O=S(=O)(c1ccccc1F)N1CCN(c2nc(-c3cccs3)nc3ccccc23)CC1
  A = -0.4%; B = nt; C = nt; D = -7.0%; E = nt; F = nt

Next results:
Codes – A = A549 tox; B = GALK inhibitor; C = Nrf2 activator; D = Nrf2 inh; E = PI4K2A block; F = miR-21 reporter
(31) FC(F)(F)c1ccccc1NC(=S)OCCN1CCCC12CCC(c1ccccc1)CC2 (stereo unspecified)
  A = nt; B = nt; C = nt; D = nt; E = -2.2; F = nt
(32) CC(C)C(=O)Nc1cccc(COc2ccc(CN(Cc3ccccc3)C(=O)OC(C)(C)C)cc2)c1
  A = -3.6%; B = nt; C = 4.4%; D = 16.4µM*; E = -4.6; F = nt
(33) CCc1cccc(NC(=O)C2CCC(CNS(=O)(=O)c3csc(C(N)=O)c3)CC2)c1 (stereo unspecified)
  A = -1.0%; B = nt; C = 1.2%; D = -3.0%; E = -2.5; F = -3.3%
(34) COc1cccc(NC(=O)C2CCC(CNS(=O)(=O)c3csc(C(N)=O)c3)CC2)c1 (stereo unspecified)
  A = -0.1%; B = nt; C = 3.7%; D = 0.0%; E = -66.3*; F = 0.9%
(35) Cc1cc(NC(=O)c2ccc(NS(=O)(=O)c3ccc(F)cc3)cc2)no1
  A = nt; B = nt; C = nt; D = nt; E = 3.3; F = nt
(36) c1nc(N2CCOCC2)c2c3c(sc2n1)CCCC3
  A = 3.5%; B = -0.8%; C = -0.7%; D = -15.5%; E = 2.0; F = -15.9%
(37) O=C(c1ccccc1)N1CCN(c2ncnc3sc4c(c23)CCC4)CC1
  A = -4.3%; B = 1.2%; C = 0.6%; D = 16.4µM*; E = -0.7; F = 16.4%
(38) Cc1nn(CC(O)COc2ccc3c(c2)CCC3)c(C)c1Br (stereo unspecified)
  A = 1.5%; B = 2.3%; C = -0.5%; D = 7.4%; E = 7.8; F = -7.7%
(39) CC(=O)c1c(C)nn(CC(O)COc2ccc3c(c2)CCC3)c1C (stereo unspecified)
  A = 1.7%; B = 3.8%; C = -0.4%; D = 9.2µM*; E = 2.5; F = 9.6%
(40) O=C1N/C(=C\c2ccc(O)cc2)C(=O)c2ccccc21
  A = -1.1%; B = 0.3%; C = 8.4%; D = nt; E = -50.2*; F = 14.6%
(41) COc1ccc(Cl)cc1-c1nc(-c2ccncc2)no1
  A = 0.0%; B = 0.4%; C = 6.31µM*; D = ?; E = 9.6; F = -10.9%
(42) CC(C)CNC(=O)OCc1cn(Cc2cc(F)ccc2F)nn1
  A = nt; B = nt; C = nt; D = nt; E = -5.3; F = nt
(43) CCOC(=O)c1c(C)[nH]c(C)c1C(=O)CSc1nc2ccccc2c(=O)n1-c1ccc(F)cc1
  A = ?; B = 1.3%; C = 5.5%; D = 23.1µM*; E = 0.3; F = 10.0%
(44) O=c1[nH]c2ccccc2nc1-c1ccccc1
  A = -3.8%; B = 1.0%; C = 3.9%; D = ?; E = 7.2; F = -54.0%
(45) NC(=O)N=Nc1c2[nH]c3ccccc3nc-2c2ccccc12
  A = ?; B = 2.9%; C = 10.3%; D = 10.3µM*; E = -0.8; F = 27.2%
(46) O=C(N[C@@H]1C[C@@H]2O[C@@H](CO)CC[C@@H]2O[C@@H]1CCc1ccc(-c2ccccc2)cc1)c1cnccn1
  A = nt; B = nt; C = nt; D = nt; E = -3.0; F = nt
(47) C#CCNC(=O)C[C@@H]1C(=O)N(CC=C)/C2=C/CCCCC[C@]21C(=O)OCC
  A = nt; B = nt; C = nt; D = nt; E = -1.3; F = nt

Three records picked at random from those above:
Codes – A = A549 tox; B = GALK inhibitor; C = Nrf2 activator; D = Nrf2 inh; E = PI4K2A block; F = miR-21 reporter
(16) COc1ccc(S(=O)(=O)Nc2ccc3c(c2)OCO3)cc1OC
  A = 0.6%; B = 1.0%; C = 0.0%; D = 2.9%; E = -1.9; F = -15.6%
(9) COc1ccc2c(c1)c(/C=C/c1cc[n+](C)cc1)cn2C
  A = -1.2%; B = 0.8%; C = 7.8%; D = 11.6µM*; E = -12.0; F = 29.5%
(28) O=C(NC(c1ccc(Cl)cc1)c1c(O)ccc2ccccc12)c1ccccc1 (stereo unspecified)
  A = ?; B = 0.5%; C = 9.3%; D = 11.6µM*; E = 2.0; F = ?
